“And” between values parts separate entries of the source, which are not always exact repeats. Identical values can stand only once.
Columns and labels:
[1] = Radiochemical stability of ^212Pb-labelled Compound 1 (HPLC); details: over 6 h, sodium ascorbate formulation buffer
Procedure: Compound 1 was dissolved in reaction buffer, e.g. at a concentration of 1 mg/mL and added to a solution of ^212Pb (in HCl). The resulting mixture was heated at temperatures between 75-95 °C for 20-45 min, and then allowed to cool to room temperature. The specific activity during radiolabeling ranged between 100-2000 Gbq/mmol. The reaction mixture was added to a formulation buffer consisting of sodium ascorbate to stabilize the final dose and to guarantee the quality and safety of the dose. The radiochemical purity was >90% over 6 h and no radiolytic degradation was observed by high performance liquid chromatography (HPLC).

[2] = Stability of ^225Ac-Compound 1 radiolabelling (TLC); details: up to 72 h after synthesis
Procedure: The radiochemical purity of Compound 1 over the monitored period is stable resulting in an acceptable stability of the formulation.
Radiolabelling was initially performed as described in Example 3 but with reaction buffer comprising 0.25 M TRIS buffer at pH 8. Subsequently, the radiolabelling was performed by dissolving Compound 1 in the reaction buffer at a concentration of 1 mg/mL and added to a solution of ^225Ac (in HCl). The resulting mixture was heated at temperatures between 75-95 °C for 20-45 min, and then allowed to cool to room temperature. The specific activity during radiolabeling ranged between 1-10 GBq/mmol. The reaction mixture was added to a formulation buffer consisting of sodium ascorbate to stabilize the final dose.

[3] = tested on: NCI-H69 tumor expressing SST2; assay: Biodistribution of ^212Pb-Compound 1 in NCI-H69 xenograft mice; details: for tumor uptake: 1.3-1.5 MBq
Procedure: The 1 h, 4 h, 24 h biodistribution study of ^212Pb-Compound 1 was performed with xenograft Balb/c nude mice with a NCI-H69 model for expressing SST2. NCI-H69 cells (cells from the human small cell lung cancer cell line NCI-H69) were grown in DMEM media with 10% FBS. Upon 80% confluency, cells were collected and dissolved in 1:1 of PBS and matrigel for injection. 50 μl of cell solution with 5×10^6 cells were injected in right flank (Balb/C nude female mice 6-8 weeks). 15 mice were injected with 1.3-1.5 MBq of ^212Pb-Compound 1 (approximately 50 μL injection). At 1 hour, 4 hours and 24 hours post injection, 5 mice were sacrificed by cervical dislocation and a blood sample immediately removed by cardiac puncture.
Mice were dissected and organs were washed in PBS to remove blood and added to pre-weighed gamma counter tubes for further analysis. […] A moderate uptake within the radiosensitive organ (kidney) was observed, with a tumor to kidney ratio staying constant at 0.4 over the entire experimental period.

[4] = tested on: NCI-H69 tumor cells expressing SST2; assay: Biodistribution of ^225Ac-Compound 1 in NCI-H69 xenograft mice
Procedure: The 4 h, 24 h, 96 h biodistribution study of ^225Ac-Compound 1 was performed with xenograft Balb/c nude mice engrafted with NCI-H69 tumor cells expressing SST2. NCI-H69 cells (cells from the human small cell lung cancer cell line NCI-H69) were grown in RPMI1640 media with 10% FBS. Upon 80% confluency, cells were collected and dissolved in 1:1 of PBS and matrigel for injection. 100 μl of cell solution with 5×10^6 cells were injected in the right flank of Balb/C nude female mice at an age of ~7 weeks. 12 mice were injected with 90 kBq of ^225Ac-Compound 1 in 100 μL. At 4 hours, 24 hours and 96 hours post injection, 4 mice were sacrificed by overdose of a mixture of ketamine and xylazine followed by exsanguination via intracardiac puncture. Mice were dissected and organs were rinsed in 0.9% NaCl to eliminate contaminating blood and blotted before being weighed and subsequently transferred into scintillation vials. Tissues were dissolved using Solvable as tissue solubilizer. Each solution was decolorized by adding 30% H2O2 before scintillation counting. Pico-Fluor Plus was used as liquid scintillation counting cocktail. The radioactivity was measured using a Hidex 300 SL calibrated for ^225Ac radionuclide.

[5] = tested on: NCI-H69 tumor expressing SST2; assay: Single dose efficacy study of ^212Pb-Compound 1 (0.35-1.6 MBq), Table 1
Procedure: (§1) A single dose study with tumor bearing mice with an NCI-H69 model for expressing SST2 was performed. 25 Balb/C nude female mice aged 6-8 weeks were injected with 5×10^6 NCI-H69 cells in the right flank three weeks prior to treatment. Mice were observed daily 14 days prior to and for 60 days following treatment. Mice were treated when tumors reach approximately 250 mm^3 and were euthanized when either tumors reach 1000 mm^3 or mice reach an euthanize status on the health score sheet.
(§2) The mice were distributed into five groups for different treatments: […]

[6] = tested on: NCI-H69 tumor expressing SST2; assay: Single dose efficacy study of ^212Pb-Compound 1 (113-503 kBq), Table 2; details: for time to visible treatment effects: after treatment
Procedure: as §1, §2

[7] = tested on: SST2-positive NCI-H69 tumor; assay: Single- and multi-dose efficacy study of ^225Ac-Compound 1
Procedure: A single- and multi-dose efficacy study in SST2-positive NCI-H69 tumor-bearing mice was conducted. 60 Balb/C nude female mice aged 6-8 weeks were injected with 5×10^6 NCI-H69 cells in the right flank and treatment started when tumors reached a mean tumor volume of 140 mm^3. Animals were euthanized when either tumor volumes of more than 1000 mm^3 were observed or other ethical criteria were reached.

[8] = tested on: SST2-positive NCI-H69 tumor; assay: Single- and multi-dose efficacy study of ^212Pb-Compound 1
Procedure: A single- and multi-dose efficacy study in SST2-positive NCI-H69 tumor-bearing mice was conducted. 55 Balb/C nude female mice aged 6-8 weeks were injected with 5×10^6 NCI-H69 cells in the right flank and treatment started when tumors reached a mean tumor volume of 260 mm^3. Animals were euthanized when either tumor volumes of more than 1000 mm^3 were observed or other ethical criteria were reached.

[9] = tested on: SST2-positive NCI-H69 tumor; assay: Single-dose efficacy study of ^225Ac-Compound 1
Procedure: A single-dose efficacy study in SST2-positive NCI-H69 tumor-bearing mice was conducted. Balb/c nude female mice aged 6-8 weeks were injected with 5×10^6 NCI-H69 cells in the flank and treatment started when tumors reached a mean tumor volume of 160 mm^3.

[10] = unlabelled Compound 1 control, single injection

## C[C@@H](O)[C@@H]1NC(=O)[C@H](CCCCN)NC(=O)[C@@H](Cc2ccc(NC(N)=O)cc2)NC(=O)[C@H](Cc2ccc(NC(=O)[C@@H]3CC(=O)NC(=O)N3)cc2)NC(=O)[C@H](NC(=O)[C@H](Cc2ccc(Cl)cc2)NC(=O)CN2CCN(CC(=O)O)CCN(CC(=O)O)CCN(CC(=O)O)CC2)CSSC[C@@H](C(=O)N[C@H](Cc2ccc(O)cc2)C(N)=O)NC1=O
[1]; HPLC
  radiolytic degradation: no radiolytic degradation was observed
[1]
  radiochemical purity over time (stability): > 90%
[2]
  radiochemical purity over the monitored period: stable
[3]; FIG. 2, after 24 hours
  tissue distribution of uptake: distributed between two major tissue compartments (kidneys and tumor)
[3]; FIG. 2, over 1, 4 and 24 hours
  uptake in the tumor tissue: clear uptake
[3]; constant over the entire experimental period (1-24 h)
  tumor to kidney ratio: 0.4
[3]; persisted over 24 h
  tumor uptake: > 2 % ID/g
[3]; radiosensitive organ (kidney), 1, 4, 24 h
  kidney uptake: moderate uptake
[3]; t=1 h
  tumor uptake: > 5 % ID/g
[4]; 4 h, 90 kBq
  tumor-to-kidney ratio: 0.75
[4]; 96 h, 90 kBq
  tumor-to-kidney ratio: 1.38
[4]; FIG. 5B, over the course of 96 h
  tumor to background (tumor/kidney) ratio, change over time: increase of tumor to background ratio
[4]; over 96 h, 90 kBq
  kidney uptake, change over time: rapidly decreased over 96 h
  tumor uptake: > 4.5 % ID/g
[4]; radiosensitive organ (kidney), 90 kBq
  kidney uptake: moderate uptake
[5]; 20 MBq single dose
  tumor growth / tumor size response: response and delay of the tumor growth but no reduction of the tumor size
[5]; FIG. 3A, 1.6 MBq and 0.75 MBq, single injection
  tumor size: reduces tumor size
[5]; all doses, even lowest level 0.35 MBq, single dose
  tumor growth delay versus unlabelled Compound 1: delay of growth of the tumor size
[5]; mid and high dose (0.75 MBq and 1.6 MBq) vs 20 MBq ^177Lu-Compound 1
  fraction of radioactivity giving comparable tumor reduction versus ^177Lu-Compound 1: 1/12
[5]; [10]
  tumor growth: the tumor growth progressed in the animals without any impact
[6]; 21.5 MBq single dose
  duration of controlled tumor growth: up to 20 days
  median survival: 42 days
  tumor growth / tumor size response: response and delay of the tumor growth but no reduction of the tumor size
  time to visible treatment effects: ~ 3 days
[6]; 113 kBq single dose
  median survival: 41 days
[6]; 236 kBq single dose
  median survival: 38 days
[6]; 503 kBq single dose
  median survival: 49 days
  median survival compared to ^177Lu-Compound 1 (21.5 MBq): longer median survival
  potency regarding tumor growth inhibition and prolongation of survival versus 21.5 MBq ^177Lu-Compound 1: higher potency
[6]; FIG. 3B, highest dose 503 kBq
  mean tumor volume relative to d0: initial reduction of the mean tumor volume relative to d0
[6]; FIG. 3C, highest dose 503 kBq
  median survival ranking among groups: longest median survival
[6]; ^212Pb treatment (113, 236, 503 kBq)
  time to visible treatment effects: ~ 3 days
[6]; all doses, even lowest level 113 kBq, single dose
  tumor growth delay versus unlabelled Compound 1: delay of growth of the tumor size
[6]; control (Compound 1) animals
  time to reach the ethical limit: < 28 days
[6]; high dose 503 kBq
  duration of controlled tumor growth: up to 20 days
[6]; low dose 113 kBq
  duration of controlled tumor growth: 10 days
[6]; medium dose 236 kBq
  duration of controlled tumor growth: 14 days
[6]; medium dose 236 kBq, at day 10
  decrease in tumor volume: ~ 5%
[6]; mid and high dose (236 kBq and 503 kBq) vs 21.5 MBq ^177Lu-Compound 1
  fraction of radioactivity giving comparable tumor reduction versus ^177Lu-Compound 1: 1/42
[6]; [10]
  tumor growth: the tumor growth progressed in the animals without any impact
[6]; unlabelled control, single injection
  median survival: 22 days
[7]; 20 MBq Q2W × 3
  median survival: Not reached
[7]; 30 kBq Q2W × 3 (low dose)
  median survival: Not reached
[7]; 30 kBq QW (low dose)
  median survival: Not reached
[7]; 30 kBq QW × 3 (low dose)
  median survival: Not reached
[7]; 90 kBq QW (high dose)
  median survival: Not reached
[7]; single dose (QW) of 90 kBq and 30 kBq
  initial induction of tumor regression versus ^177Lu-Compound 1 given 3x every 2 weeks: as effective as ^177Lu-Compound 1
[7]; single dose (QW) of 90 kBq and 30 kBq vs 20 MBq Q2W × 3
  rate of complete remissions versus ^177Lu-Compound 1: outperformed ^177Lu-Compound 1
[7]; unlabelled Compound 1 control
  time to reach the ethical limits: 21 to 55 days
[7]; unlabelled Compound 1 control, QW
  median survival: 34 days
[8]; 20 MBq Q2W × 3
  complete remissions: 100%
  efficacy of multiple doses compared to different regimens and doses of ^212Pb-Compound 1: more effective
[8]; 250 kBq Q2W × 3 (low dose)
  median survival: 70 days
[8]; ^177Lu-Compound 1 Q2W × 3
  recurrence of tumors: not after ^177Lu-Compound 1 Q2W×3
[8]; all ^212Pb-treated groups, but not after ^177Lu-Compound 1 Q2W × 3
  recurrence of tumors: recurrence of tumors
[8]; unlabelled Compound 1 control
  time to reach the ethical limits: 16 to 53 days
[8]; unlabelled Compound 1 control, Q2W × 3
  median survival: 30 days and 34 days
[9]; 3.33 kBq single dose, up to day 9 after treatment
  tumor growth: no significant effect on tumor growth
[9]; 10 kBq and 30 kBq single dose, starting on day 4 after treatment
  tumor growth: tumor growth suppression
[9]; FIG. 8, single doses of 10 kBq and 30 kBq, until day 9
  tumor growth versus vehicle control and 3.33 kBq: tumor growth reduction
